Experimental data published in patent US20090170766A1, “Chimeric Kunitz Domains and their Use” (BAYER HEALTHCARE AG, priority 2006, published 2009).

Assays:
[1] = target: human plasmin (Homo sapiens, UniProt P00747)
[2] = target: human trypsin (human) (UniProt P07477)

Plasmin IC50 [nM], inhibition of enzymatic activity, fluorogenic substrate [1]: 4 nM | Trypsin IC50 [nM], inhibition of enzymatic activity, fluorogenic substrate [2]: 9 nM
Substance: Aprotinin (BPTI)
